# Apparent affinities of Ab-14 variants for a coronavirus HR2 peptide

Values reported by Li et al. 2023, doi:10.1038/s41467-023-39022-2 (FLAb copy).

Target: peptide PDVDLGDISGINAS, taken from heptad repeat 2 (HR2) of SARS-CoV-2 spike.

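Phage display of a naive human antibody library on the peptide gave the parent. Designed CDR sequences, proposed from the first random library and measured here. Several design methods are mixed in this list. Affinity was read by AlphaSeq, a pooled yeast mating assay with surface-displayed partners. The frequency of each diploid, read from paired DNA barcodes, reflects how well the two displayed proteins bind. Each replicate has its own calibration line, from reference interactions of the BCL2 family. Mating was done six times.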

Parent scFv Ab-14: VH joined to VL by the linker GGGGSGGGGSGGGGS. Changes lie in the heavy chain CDRs alone.
VH: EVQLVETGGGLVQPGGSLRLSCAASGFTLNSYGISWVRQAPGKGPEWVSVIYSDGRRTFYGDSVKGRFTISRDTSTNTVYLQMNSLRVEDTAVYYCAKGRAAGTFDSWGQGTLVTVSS
VL: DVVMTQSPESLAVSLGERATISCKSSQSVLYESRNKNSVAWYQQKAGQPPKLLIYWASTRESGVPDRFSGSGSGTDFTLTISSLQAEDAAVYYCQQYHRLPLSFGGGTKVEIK

Each variant is given by its three heavy chain CDRs, as the data file delimits them; those of the parent are GFTLNSYGIS, VIYSDGRRTFYGDSVK, GRAAGTFDS.
Affinities are written as log10 Kd with Kd in nM; a lower number is a better binder.
A mean of the replicates is given; it leaves out those without a signal.
"nd" means that the variant was in the library but no mating with the target was seen in any replicate; the authors take this as a sign of poor binding, and no number exists.
As a blank, each scFv also met three strains without target: over all heavy chain designs, 1% of these pairings were detected, typically at 2.08 and seldom below 0.84. Also given: how often the same scFv was detected with the empty control strains.
The range of this assay differs from that of the first round, and the authors advise against merging the two.
The authors averaged sequences with at least three values out of six and counted those with two or fewer as poor binders.
Of ten entries with the parent sequence, four were seen in most replicates (averages 0.34 to 2.37), three in one and three in none, so single entries are noisy.

| CDR-H1 | CDR-H2 | CDR-H3 | log10 Kd (nM), mean | replicates with signal | control signals |
|---|---|---|---|---|---|
| GFDLNEYGIS | VIYADGRRTAYSDSVK | GNNAGTFDL | 1.47 | 2 of 6 | 0 of 18 |
| GKDIEEYGIS | VIYADGMRQAYLDKVK | GNNVGSGSF | nd | 0 of 6 | 1 of 18 |
| GFNLNEYGIS | VIYADGMRASYRNDVK | GQISGDFML | 1.63 | 2 of 6 | 0 of 18 |
| GFMLNEYGIS | VIYSDGRRTVYTDSVK | GRFAGTFDS | 1.63 | 6 of 6 | 1 of 18 |
| GQSLDEYGIS | VIYADGQRKSYMDSVK | GNGTGTLFD | 2.45 | 1 of 6 | 0 of 18 |
| GETRNSYGIS | VIYSDGRRTFYGDSVK | GRAALTFKS | nd | 0 of 6 | 0 of 18 |
| GFNLNSYGIS | VIYSDGRRTFYIDSVK | GRHAGTFDS | 1.65 | 1 of 6 | 0 of 18 |
| GFDLNEYGIS | VIYADGRRTFYTDSFK | GEIAGTFDQ | -0.01 | 6 of 6 | 0 of 18 |
| GFSLNMYGIS | VIYSDGRRTFYSDSVK | GKAAGTFDS | 0.49 | 6 of 6 | 0 of 18 |
| GFTLTSYGIS | VIYSDGRRTFYGDSVK | EYAAGTFCS | nd | 0 of 6 | 0 of 18 |
| GFDLNSYWIS | VIYSDGRRTFYGGSVK | GRAAGWFNS | nd | 0 of 6 | 0 of 18 |
| KFSLNSYGIS | VIYSDGRRTFYADSVK | GRMAGTFDS | 1.81 | 6 of 6 | 0 of 18 |
| GFSLNMYGIS | VIYSDGRRTFYGDSVK | GREAGTFDS | -0.08 | 6 of 6 | 0 of 18 |
| GFTLNEYGIS | VIYSDGRRTFYCDSVK | GRFAGTFDS | 2.45 | 5 of 6 | 0 of 18 |
| GFDLNEYGIS | VIYADGMRQAVVQNVK | GKINQTDSV | nd | 0 of 6 | 0 of 18 |
| GFDLNEYGIS | VIYADGMRKAYADDVK | GNEAGTFDV | -0.30 | 6 of 6 | 1 of 18 |
| GFDLNDYGIS | VIYADGMRTQYIDSVK | GEVAGTFDL | 0.10 | 6 of 6 | 0 of 18 |
| GFDLEEYGIS | VIYADGIRVSYAQNVK | GVYSGTHYV | 1.66 | 2 of 6 | 0 of 18 |
| GFDLEEMGIS | VIYADGIRTAVSNDVK | GNVAGTGDF | nd | 0 of 6 | 0 of 18 |
| GNTLDEYGIS | VIYADGSRMAYANKFK | GMDVGTFDQ | nd | 0 of 6 | 0 of 18 |
| GFNLDEYGVS | VIYADGKRCQYANTVK | GELAGFFML | nd | 0 of 6 | 0 of 18 |
| GFGLNSYGIS | VIYADGRRTFYGDSVK | GKAAGTFDV | -0.02 | 6 of 6 | 0 of 18 |
| GFDLDEYGIS | VIYADGQRTYYADSVK | GNVAGTFDV | -0.79 | 6 of 6 | 1 of 18 |
| GFDLNEYGIS | VIYADGVRTAYADSVK | GQNAGTFDI | -0.70 | 6 of 6 | 0 of 18 |
| GFDLNEYGIS | VIYADGRRTAYSDSVK | GQVAGTFDS | -0.72 | 6 of 6 | 0 of 18 |
| GFTDNDYGIS | VIYSDGRRTFYGDSVK | GRAALTFIG | nd | 0 of 6 | 0 of 18 |
| GFSLNSYGIS | VIYSDGRRTFYGDSVK | GRQAGTFDT | 0.32 | 6 of 6 | 0 of 18 |
| GFDLNEYGIS | VIYADGSRTAYSDSVK | GENAGTFDQ | -0.09 | 6 of 6 | 1 of 18 |
| GFDLNEYGIS | VIYADGRRKFYADNVK | GENAGTFNV | -0.37 | 6 of 6 | 0 of 18 |
| GFDLNTYGIS | VIYSDGRRTAYGDQVK | GQAAGTFDS | -0.05 | 6 of 6 | 0 of 18 |
| GFDLNEYGIS | VIYADGVRTAYADDVK | GNVAGTFDT | -0.53 | 6 of 6 | 0 of 18 |
| GFNLEEYGIS | VIYADGFRASYQDDVK | GQNGSVNLR | nd | 0 of 6 | 0 of 18 |
| GFTLNSYGIS | VIYSDGRRTFYVDSVK | GQLAGTFDT | 2.30 | 2 of 6 | 0 of 18 |
| GFDIEKYGIS | VIYADGQRVSYDSSVK | GENAGYFMD | nd | 0 of 6 | 0 of 18 |
| GFTLNSYGIS | VIYSDGRRTFYGDSVK | GRAAGTFED | nd | 0 of 6 | 1 of 18 |
| GFDLNEYGIS | VIYADGVRTAYADNVK | GETAGTFDQ | -0.70 | 6 of 6 | 2 of 18 |
| GFWLNEYGIS | VIYSDGRRTFYGDHVK | GRTAGTFDS | 2.37 | 4 of 6 | 0 of 18 |
| GFTLNEYGIS | VINSDGNRTFYGDSVK | ARAAVTFDQ | nd | 0 of 6 | 1 of 18 |
| GFDLNEYGIS | VIYADGMRTFYADSVK | GEAAGTFDS | -0.38 | 6 of 6 | 0 of 18 |
| GFTLNSYGIS | VIYSDGRRTFYGDSVK | CLNAGTFDS | nd | 0 of 6 | 0 of 18 |
| GFDLNSYGIS | VIYSDGRRTAYGDSVK | GRAAGTFHS | 0.13 | 6 of 6 | 1 of 18 |
| GFTLNSYGIS | VIYSDGRRTFYSDSVK | GQAVGTFDV | 0.53 | 6 of 6 | 0 of 18 |
| GFNLDEYGIS | VIYADGRRTFYSDNVK | GEVAGTFDI | 0.15 | 6 of 6 | 0 of 18 |
| GFDLNEYGIS | VIYADGRRTFYTDSVK | GNLAGTFDV | -0.77 | 6 of 6 | 0 of 18 |
| GFNLNSYGIS | VIYSDGRRTFYGDSVK | GKNAGTFDS | 1.03 | 6 of 6 | 2 of 18 |
| GFTLRSYGIS | VIYSDGLRTFYGDSVK | GRVAGTFDS | nd | 0 of 6 | 0 of 18 |
| GFTLDSYGIS | VIYSDGRRTFYGDSVK | GRTAGTFDT | 0.42 | 6 of 6 | 0 of 18 |
| GFNLDEYGIS | VIYADGVRTQYAQSFK | GMNFGYIAG | nd | 0 of 6 | 0 of 18 |
| GFDLNEYGIS | VIYADGRRTAYAESVK | GENAGTFDV | 0.76 | 6 of 6 | 0 of 18 |
| GFTLNSYGIS | VIYSDGRRTFYTDSVK | GRAAGFFDS | nd | 0 of 6 | 0 of 18 |
| GQDLQEFGVS | VIYADGSRTAYADSFK | GQSAGNIVQ | nd | 0 of 6 | 0 of 18 |

For reference, 6 entries of the list once more:

| CDR-H1 | CDR-H2 | CDR-H3 | log10 Kd (nM), mean | replicates with signal | control signals |
|---|---|---|---|---|---|
| GFTLRSYGIS | VIYSDGLRTFYGDSVK | GRVAGTFDS | nd | 0 of 6 | 0 of 18 |
| GFDLEEMGIS | VIYADGIRTAVSNDVK | GNVAGTGDF | nd | 0 of 6 | 0 of 18 |
| GETRNSYGIS | VIYSDGRRTFYGDSVK | GRAALTFKS | nd | 0 of 6 | 0 of 18 |
| GFTLDSYGIS | VIYSDGRRTFYGDSVK | GRTAGTFDT | 0.42 | 6 of 6 | 0 of 18 |
| GFDLNEYGIS | VIYADGRRTFYTDSVK | GNLAGTFDV | -0.77 | 6 of 6 | 0 of 18 |
| KFSLNSYGIS | VIYSDGRRTFYADSVK | GRMAGTFDS | 1.81 | 6 of 6 | 0 of 18 |